Test results: ChEMBL document CHEMBL5352507, “Discovery of a Pan-Melanocortin Receptor Antagonist [Ac-DPhe(pI)-Arg-Nal(2')-Orn-NH2] at the MC1R, MC3R, MC4R, and MC5R that Mediates an Increased Feeding Response in Mice and a 40-Fold Selective MC1R Antagonist [Ac-DPhe(pI)-DArg-Nal(2')-Arg-NH2]” (J Med Chem, 2023)
pEC50, pKi: −log10 of the molar value.

The chains behind the UniProt entries cited, without tags or fusion partners. Where a name states a change or a piece, a line headed by the entry shows the natural chain unless it says otherwise.
UniProt P56450, whole entry: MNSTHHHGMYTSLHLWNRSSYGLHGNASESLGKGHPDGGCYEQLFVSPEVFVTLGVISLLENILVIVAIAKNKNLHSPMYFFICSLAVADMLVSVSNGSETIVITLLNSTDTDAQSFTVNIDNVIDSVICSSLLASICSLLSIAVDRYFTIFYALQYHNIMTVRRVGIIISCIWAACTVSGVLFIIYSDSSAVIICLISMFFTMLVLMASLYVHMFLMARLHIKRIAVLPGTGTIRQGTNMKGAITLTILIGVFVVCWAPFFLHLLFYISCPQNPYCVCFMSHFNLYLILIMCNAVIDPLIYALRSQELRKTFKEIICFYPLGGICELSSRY
UniProt P33033: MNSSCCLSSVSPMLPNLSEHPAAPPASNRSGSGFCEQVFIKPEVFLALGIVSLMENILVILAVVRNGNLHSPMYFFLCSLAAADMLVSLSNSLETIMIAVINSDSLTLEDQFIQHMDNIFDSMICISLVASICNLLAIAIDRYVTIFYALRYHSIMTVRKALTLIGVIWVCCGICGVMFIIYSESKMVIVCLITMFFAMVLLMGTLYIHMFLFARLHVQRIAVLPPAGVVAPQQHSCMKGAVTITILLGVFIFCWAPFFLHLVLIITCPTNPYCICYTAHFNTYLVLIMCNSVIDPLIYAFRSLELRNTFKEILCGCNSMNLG
UniProt Q01727: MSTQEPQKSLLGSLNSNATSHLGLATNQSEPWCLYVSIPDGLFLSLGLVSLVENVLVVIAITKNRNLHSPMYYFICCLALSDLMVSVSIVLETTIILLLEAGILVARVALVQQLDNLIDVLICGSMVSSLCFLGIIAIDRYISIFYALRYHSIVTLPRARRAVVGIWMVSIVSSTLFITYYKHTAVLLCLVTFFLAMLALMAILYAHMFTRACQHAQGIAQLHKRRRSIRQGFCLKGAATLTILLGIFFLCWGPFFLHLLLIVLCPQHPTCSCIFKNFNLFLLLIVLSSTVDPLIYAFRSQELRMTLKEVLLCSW
UniProt P41149: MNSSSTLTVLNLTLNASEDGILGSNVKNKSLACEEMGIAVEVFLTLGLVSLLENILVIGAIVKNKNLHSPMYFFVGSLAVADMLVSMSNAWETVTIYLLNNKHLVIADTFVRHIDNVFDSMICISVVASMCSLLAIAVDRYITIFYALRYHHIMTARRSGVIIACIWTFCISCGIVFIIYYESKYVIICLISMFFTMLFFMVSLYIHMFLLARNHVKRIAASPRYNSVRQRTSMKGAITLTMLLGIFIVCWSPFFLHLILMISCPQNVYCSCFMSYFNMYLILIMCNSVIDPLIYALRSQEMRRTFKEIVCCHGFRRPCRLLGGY

Experiments:
Melanocortin receptor 4 [1] = biological target: T1, Melanocortin receptor 4 (Mus musculus, UniProt P56450); assay type: cell-based, HEK293
Melanocortin receptor 3 [2] = biological target: T2, Melanocortin receptor 3 (Mus musculus, UniProt P33033); test: Agonist activity against mouse MC3R expressed in HEK293 cells assessed as increase in cAMP level incubated for 2 hrs by AlphaScreen assay; assay type: functional, cell-based
[3] = biological target: T3, Melanocyte-stimulating hormone receptor (Mus musculus, UniProt Q01727); test: Binding affinity to mouse MC1R expressed in HEK293 cells assessed as inhibition constant by schild plot analysis; assay type: cell-based
Melanocortin receptor 3 [4] = biological target: T2, Melanocortin receptor 3; assay type: cell-based, HEK293
Melanocortin receptor 5 [5] = biological target: T4, Melanocortin receptor 5 (Mus musculus, UniProt P41149); test: Binding affinity to mouse MC5R expressed in HEK293 cells assessed as inhibition constant by schild plot analysis; assay type: cell-based
[6] = biological target: T3, Melanocyte-stimulating hormone receptor; test: Agonist activity against mouse MC1R expressed in HEK293 cells assessed as increase in cAMP level incubated for 2 hrs by AlphaScreen assay; assay type: functional, cell-based
Melanocortin receptor 4 [7] = biological target: T1, Melanocortin receptor 4; test: Agonist activity against mouse MC4R expressed in HEK293 cells assessed as increase in cAMP level incubated for 2 hrs by AlphaScreen assay; assay type: functional, cell-based
Melanocortin receptor 5 [8] = biological target: T4, Melanocortin receptor 5; test: Agonist activity against mouse MC5R expressed in HEK293 cells assessed as increase in cAMP level incubated for 2 hrs by AlphaScreen assay; assay type: functional, cell-based
[9] = biological target: T3, Melanocyte-stimulating hormone receptor; test: Partial agonist activity against mouse MC1R expressed in HEK293 cells assessed as increase in cAMP level incubated for 2 hrs by AlphaScreen assay; assay type: functional, cell-based

Row | pKi (Melanocortin receptor 4 [1]) | pEC50 (Melanocortin receptor 3 [2]) | pKi [3] | pKi (Melanocortin receptor 3 [4]) | pKi (Melanocortin receptor 5 [5]) | pEC50 [6] | pEC50 (Melanocortin receptor 4 [7]) | pEC50 (Melanocortin receptor 5 [8]) | pEC50 [9] | SMILES
1 | 5.80 |  |  |  |  |  |  |  |  | CC(=O)N[C@H](Cc1ccc(I)cc1)C(=O)N[C@@H](CN)C(=O)N[C@@H](Cc1ccc2ccccc2c1)C(=O)N[C@@H](CCCNC(=N)N)C(N)=O
2 |  | < 4.00 | 6.20 | 5.70 |  |  |  |  |  | CC(=O)N[C@H](Cc1ccc(I)cc1)C(=O)N[C@@H](Cc1c[nH]cn1)C(=O)N[C@@H](Cc1ccc2ccccc2c1)C(=O)N[C@@H](CCCNC(=N)N)C(N)=O
3 | 8.80 |  | 6.49 | 7.80 | 6.70 |  |  |  |  | CC(=O)N[C@H](Cc1ccc(I)cc1)C(=O)N[C@@H](CCCNC(=N)N)C(=O)N[C@@H](Cc1ccc2ccccc2c1)C(=O)N[C@@H](CCN)C(N)=O
4 | 8.20 |  | 7.30 | 7.70 |  |  |  |  |  | CC(=O)N[C@H](Cc1ccc(I)cc1)C(=O)N[C@@H](CCCNC(=N)N)C(=O)N[C@@H](Cc1ccc2ccccc2c1)C(=O)N[C@@H](CCCCNC(=N)N)C(N)=O
5 |  | < 4.00 |  |  |  | < 4.00 | < 4.00 | < 4.00 |  | CC(=O)N[C@H](Cc1ccc(I)cc1)C(=O)N[C@@H](CCCNC(=N)N)C(=O)N[C@@H](Cc1ccc2ccccc2c1)C(=O)N[C@H](CCCNC(=N)N)C(N)=O
6 | 8.89 | < 4.00 | 6.49 | 7.40 | 6.70 |  | < 4.00 | < 4.00 |  | CC(=O)N[C@H](Cc1ccc(I)cc1)C(=O)N[C@@H](CCCCNC(=N)N)C(=O)N[C@@H](Cc1ccc2ccccc2c1)C(=O)N[C@@H](CCCNC(=N)N)C(N)=O
7 | 6.49 | < 4.00 | 6.20 | 5.80 |  |  |  |  |  | CC(=O)N[C@H](Cc1ccc(I)cc1)C(=O)N[C@@H](CCCNC(N)=O)C(=O)N[C@@H](Cc1ccc2ccccc2c1)C(=O)N[C@@H](CCCNC(=N)N)C(N)=O
8 |  | < 4.00 | 6.20 |  |  |  |  | < 4.00 |  | CC(=O)N[C@H](Cc1ccc(I)cc1)C(=O)N[C@H](CCCCN)C(=O)N[C@@H](Cc1ccc2ccccc2c1)C(=O)N[C@@H](CCCNC(=N)N)C(N)=O
9 | 8.10 |  | 6.60 | 7.30 | 6.30 |  |  |  |  | CC(=O)N[C@H](Cc1ccc(I)cc1)C(=O)N[C@@H](CCCNC(=N)N)C(=O)N[C@@H](Cc1ccc2ccccc2c1)C(=O)N[C@@H](CN)C(N)=O
10 | 8.49 |  | 5.89 | 6.80 | 6.10 |  |  |  |  | CC(=O)N[C@H](Cc1ccc(I)cc1)C(=O)N[C@@H](CCCNC(=N)N)C(=O)N[C@@H](Cc1ccc2ccccc2c1)C(=O)N[C@@H](CCCNC(N)=O)C(N)=O
11 | 8.10 | < 4.00 | 6.49 |  |  |  |  | < 4.00 |  | CC(=O)N[C@H](Cc1ccc(I)cc1)C(=O)N[C@@H](CCCCN)C(=O)N[C@@H](Cc1ccc2ccccc2c1)C(=O)N[C@@H](CCCNC(=N)N)C(N)=O
12 | 7.80 |  | 6.60 |  | 5.89 |  |  |  |  | CC(=O)N[C@H](Cc1ccc(I)cc1)C(=O)N[C@@H](CCCNC(=N)N)C(=O)N[C@@H](Cc1ccc2ccccc2c1)C(=O)N[C@@H](Cc1c[nH]cn1)C(N)=O
13 |  | < 4.00 |  |  |  |  | < 4.00 | < 4.00 |  | CC(=O)N[C@H](Cc1ccc(I)cc1)C(=O)N[C@@H](CCCNC(=N)N)C(=O)N[C@@H](Cc1ccc2ccccc2c1)C(=O)N[C@@H](CCCCN)C(N)=O
14 | 6.60 | < 4.00 | 7.20 |  |  | < 4.00 | < 4.00 | < 4.00 |  | CC(=O)N[C@H](Cc1ccc(I)cc1)C(=O)N[C@@H](CCN)C(=O)N[C@@H](Cc1ccc2ccccc2c1)C(=O)N[C@@H](CCCNC(=N)N)C(N)=O
15 | 8.80 | < 4.00 | 6.40 | 7.40 | 6.40 |  | < 4.00 | < 4.00 | 5.52 | CC(=O)N[C@H](Cc1ccc(I)cc1)C(=O)N[C@@H](CCCNC(=N)N)C(=O)N[C@@H](Cc1ccc2ccccc2c1)C(=O)N[C@@H](CCCN)C(N)=O
16 |  | < 4.00 |  |  |  |  | < 4.00 | < 4.00 |  | CC(=O)N[C@H](Cc1ccc(I)cc1)C(=O)N[C@H](CCCNC(=N)N)C(=O)N[C@@H](Cc1ccc2ccccc2c1)C(=O)N[C@@H](CCCNC(=N)N)C(N)=O
17 |  |  | 6.70 |  |  |  |  |  |  | CC(=O)N[C@H](Cc1ccc(I)cc1)C(=O)N[C@@H](CCCN)C(=O)N[C@@H](Cc1ccc2ccccc2c1)C(=O)N[C@@H](CCCNC(=N)N)C(N)=O
